US11278587B2 (9 METERS BIOPHARMA, INC., priority 2018, dated 2022)
Square brackets hold non-standard residues; d marks the D form. Ends that are not written are not given here. Peptide text beside a SMILES is read from it.

System: RET melanoma cells
Test: RET melanoma model, tumor size, growth kinetics, survival

| Compound | signs of toxicity in treated animals (RET melanoma mice, (d)-larazotide with or without cICB) | RET tumor outgrowth, standalone therapy (oral gavage five times a week from day of tumor injection, no ICB, FIG. 2B) |
| --- | --- | --- |
| CC(C)C[C@@H](NC(=O)[C@H](NC(=O)CNC(=O)CN)C(C)C)C(=O)N[C@@H](C(=O)N[C@H](CCC(N)=O)C(=O)N1CCC[C@@H]1C(=O)NCC(=O)O)C(C)C [(d)-larazotide] (H-GG[dV][dL][dV][dQ][dP]G-OH) | appeared healthy with no overt signs of toxicity |  |
| GGVLVQPG [larazotide] |  | tended to boost RET outgrowth within the first 10 days |
